System: ERK signaling
Assay: ERK signaling in MED12-suppressed cancer cells in presence of drugs
Format: cell-based, human
Experimental: The cells were fixed, stained and photographed after 10 (untreated) or 28 days (treated). […] The cells were fixed, stained and photographed after 14 (untreated) or 28 days (treated). […] G) Colony formation assay of Huh-7 cells expressing pLKO control or shMED12 vectors (#4 and #5) were cultured in 2 μM sorafenib. The cells were fixed, stained and photographed after 14 (untreated) or 21 days (treated). […] Huh-7 cells expressing pLKO control or shMED12 vectors were grown in the absence or presence of 4 μM sorafenib for 6 hours and the cell lysates were harvested for western blotting analysis.

C[C@@H](Oc1cc(-c2cnn(C3CCNCC3)c2)cnc1N)c1c(Cl)ccc(F)c1Cl [crizotinib]
activation of ERK signaling by MED12 suppression in the presence of drug: persists

Source: patent US20140296248A1, “METHODS AND COMPOSITIONS FOR PREDICTING RESISTANCE TO ANTICANCER TREATMENT” (Stichting het Nederlands Kanker Instiuut-Antoni van …, priority 2011, published 2014)
